In PubChem BioAssay AID861 (The Scripps Research Institute Molecular Screening Center, 2007):
The list shows a part of the results, in another mix than the full data. Some results for these compounds are left out of this collection, so the calls shown say nothing about other tests. The source made the active and inactive calls. Cut-off read from the data, not from the text of the source: active = inhibition above about 25%; inactive = the rest.

Sequences of proteins named here, by UniProt entry; tags and fusion partners are left off.
UniProt O00206, whole entry: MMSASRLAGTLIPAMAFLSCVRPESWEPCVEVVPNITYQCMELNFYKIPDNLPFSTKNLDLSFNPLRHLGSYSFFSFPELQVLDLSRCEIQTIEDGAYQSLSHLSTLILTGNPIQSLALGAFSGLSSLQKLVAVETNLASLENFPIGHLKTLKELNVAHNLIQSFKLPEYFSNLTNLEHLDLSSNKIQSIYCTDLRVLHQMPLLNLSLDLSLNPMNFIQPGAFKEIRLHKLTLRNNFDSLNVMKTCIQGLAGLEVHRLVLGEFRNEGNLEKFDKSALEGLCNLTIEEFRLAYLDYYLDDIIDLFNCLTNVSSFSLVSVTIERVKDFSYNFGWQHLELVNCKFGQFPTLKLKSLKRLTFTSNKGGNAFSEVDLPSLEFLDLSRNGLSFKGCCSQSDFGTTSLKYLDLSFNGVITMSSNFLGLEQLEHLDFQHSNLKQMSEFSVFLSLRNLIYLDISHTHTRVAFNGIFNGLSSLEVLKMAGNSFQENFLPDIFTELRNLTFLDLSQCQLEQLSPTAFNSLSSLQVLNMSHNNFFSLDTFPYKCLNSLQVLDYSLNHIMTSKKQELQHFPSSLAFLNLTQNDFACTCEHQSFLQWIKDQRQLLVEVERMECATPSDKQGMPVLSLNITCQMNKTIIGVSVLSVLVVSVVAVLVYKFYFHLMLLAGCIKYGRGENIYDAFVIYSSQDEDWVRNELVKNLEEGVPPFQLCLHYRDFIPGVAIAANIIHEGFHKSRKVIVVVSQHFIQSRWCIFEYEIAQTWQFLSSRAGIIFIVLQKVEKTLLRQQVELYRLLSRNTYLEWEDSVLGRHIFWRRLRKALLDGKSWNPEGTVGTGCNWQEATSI

The molecules below were run against Toll-like receptor 4 (Homo sapiens) + Myeloid differentiation primary response protein MyD88 (Homo sapiens) (UniProt O00206+Q99836) (assay: inhibitors of TLR4-MyD88 association in cells, primary screen, cell-based, HeLa CL3-4, BLA complementation, FRET ratio (AID 861;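 note: 0% = vehicle and 100% = reference inhibitor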)). Conditions: HeLa CL3-4 TLR4/MyD88 BLA complementation, at 8.4 µM, hits give high values.
In the case of O=C(OC1CN2CCC1CC2)C(CO)(c1ccccc1)c1ccccc1 (centres undefined), the inhibition is reported as inactive: 16.2%. With CN(C)c1cccc(C(=O)NCC2(N(C)C)CCCCC2)c1 the inhibition was inactive: 3.13%. With COc1cccc(C(=O)NCC2(N3CCCCC3)CCCCC2)c1 the inhibition was inactive: 6.08%. With Cc1ccccc1C(=O)NCC1(N2CCCCC2)CCCCC1 the inhibition was inactive: 5.72%. For CN(C)C1CCCC1OC(=O)C(O)(c1ccccc1)c1ccccc1 (centres undefined), the inhibition was inactive: -7.19%. With CCN1CCCC(OC(=O)C2(O)c3ccccc3C=Cc3ccccc32)C1 (centres undefined) the inhibition was inactive: -5.4%. C=CCN1CCN(CCOC(=O)C(O)(c2ccccc2)c2ccccc2)CC1 was tested, and the inhibition was inactive: 2.31%. O=C(NCC1(N2CCCCC2)CCCCC1)c1cc([N+](=O)[O-])ccc1Cl was tested, and the inhibition was inactive: -16.1%. With CC(C)N1C(=O)CC2(CCN(CCOC(=O)C(O)(c3ccccc3)c3ccccc3)CC2)C1=O the inhibition was inactive: 0.9%.
